The entries are a selection whose mix differs from that of the whole data set. Active and inactive are the calls of the source. The call rests on the fitted dose curve; in most records, active means well fitted inhibition curve with a large enough effect; inconclusive means small, poorly fitted or top-dose-only effect; inactive means flat fitted curve, though single readings scatter.
Assay: qHTS for Inhibitors of Vif-A3F Interactions: qHTS; further: % of control where 0% means no effect; nearly all actives have a fitted effect of over 65% in size
Conditions: HeLa A3F-eYFP + Vif (tagged APOBEC3F with the HIV-1 protein that degrades it), YFP fluorescence increase; at 46.1 µM (top of the series)
Source text: The recent discovery and characterization of host restriction factors, which provide a potent defense to invading retroviruses, has provided new targets for antiviral drug development. APOBEC3G (A3G) and APOBEC3F (A3F) are potent cytidine deaminases that block HIV-1 replication; HIV-1 expresses the Vif protein, which counteracts A3G and A3F by binding to them and inducing their proteasomal degradation. The Vif-A3G and Vif-A3F interactions provide two potential targets for development of small molecules which can interfere with the ability of Vif to degrade A3G or A3F. […] To identify inhibitors that can interfere with Vif mediated degradation of A3G and A3F, we have developed Hela cell lines that stably express A3G or A3F tagged with eYFP at the C-terminal end (A3G-eYFP or A3F-eYFP, respectively) and Vif. In the absence of an inhibitor, Vif induces degradation of A3G-eYFP and A3F-eYFP, and the cells are not fluorescent. In the presence of an inhibitor, it is expected that Vif will be unable to degrade A3G-eYFP and/or A3F-eYFP, resulting in an increase in yellow fluorescence. In this assays Vif A3F was screened against the Molecular Library Small Molecule Repository (MLSMR). NIH Chemical Genomics Center [NCGC] NIH Molecular Libraries Probe Centers Network [MLPCN] MLPCN Grant: MH093245 Assay Submitter (PI): Vinay Pathak, National Cancer Institute
5 uL of 700 cells/well of A3F-YFP cells are dispensed into black, clear bottom plates. The plates are incubated overnight at 37 deg C. 23 nL of compounds are added by pintool. The plates are incubated overnight at 37 deg C and then read on the TTP Acumen (Ex 488/ Em 500-530).

SMILES | activity, negative = active
O=C(COc1ccccc1)OC1CN2CCC1CC2 (stereo not given) | inactive: -2.79%
O=C(Nc1ccncc1[N+](=O)[O-])c1ccc([N+](=O)[O-])cc1[N+](=O)[O-] | inactive: 7.48%
O=C(O)C(=O)c1ccc(N(CCCl)CCCl)cc1 | inactive: 0.843%
COP1(=S)c2c(C)nn(CCC#N)c2N=C(c2ccc(F)cc2)N1C (stereo not given) | inactive: -3.74%
CCC(C)N(CC(C)C)C(=S)SC(NC(C)=O)C(Cl)(Cl)Cl (stereo not given) | inactive: 6.88%
CCOC(=O)c1ccc(NC(=O)C(C)(CCl)SC)cc1 (stereo not given) | inactive: 5.55%
O=C(OC1CN2CCC1CC2)c1cccc([N+](=O)[O-])c1 (stereo not given) | inactive: 5.74%
CCCCOc1ccc(C(=O)NCC2(N3CCCCC3)CCCCC2)cc1OC | inactive: -6.95%
Cc1cc(SC(NC(=O)c2ccccc2)C(Cl)(Cl)Cl)nc(C(C)C)n1 (stereo not given) | inactive: -14.7%
COP(=O)(OC)N1CC1c1ccccc1 (stereo not given) | inactive: -0.287%
CC1CCNP(=O)(N(CCCl)CCCl)O1 (stereo not given) | inactive: -11%
CCOC(=O)Nc1ccc([As](=O)(O)O)c(O)c1 | inactive: -6.86%
O=C(O)C(O)c1ccc(N(CCCl)CCCl)cc1 (stereo not given) | inactive: -0.773%
O=[N+]([O-])c1ccc(Nc2ccc(Oc3ccc([N+](=O)[O-])cc3[N+](=O)[O-])cc2)c([N+](=O)[O-])c1 | inactive: -5.49%
O=P(Nc1ccccn1)(c1cccc2ccccc12)c1cccc2ccccc12 | inactive: 18.5%
Cc1cc(SC(NC=O)C(Cl)(Cl)Cl)ncn1 (stereo not given) | inactive: -26.2%
CCOC(=O)Nc1cccc([As](=O)(O)O)c1 | inactive: 13.2%
Cc1ccc2nc3c(c(C)c2c1)CC(C(Cl)Cl)S3 (stereo not given) | inactive: 1.37%
Cc1ccc(OP(=O)(Nc2ccc([N+](=O)[O-])cn2)Oc2ccc(C)cc2)cc1 | inactive: -2.3%
C[As](=O)(O)c1cccc(C(=O)O)c1 | inactive: -5.41%
O=[As](O)(c1ccc(O)cc1)c1ccccc1O | inactive: -4.47%
COc1cc(C(=O)NCC2(N3CCOCC3)CCCCC2)ccc1OCC(C)C | inactive: -5.03%
O=[N+]([O-])c1ccc(-c2cc([N+](=O)[O-])c(O)c([N+](=O)[O-])c2)cc1 | inactive: -11.1%
O=C(OC1CN2CCC1CC2)c1cccc2[nH]cnc12 (stereo not given) | inactive: 10.9%
CCN(CC)C(=S)SC(NC=O)C(Cl)(Cl)Cl (stereo not given) | inactive: -3.36%

SMILES | activity, negative = active
CC(C)NC(=O)NP(=O)(Oc1ccccc1)Oc1ccccc1 | inactive: -18.7%
O=[N+]([O-])c1cc([N+](=O)[O-])c(-c2ccn[nH]2)s1 | inactive: -5.23%
CC(C)c1ccc(OP(=O)(Nc2ccccn2)Oc2ccccc2F)cc1 (stereo not given) | inactive: 0.684%
COC(=O)C1(C)COP(=O)(N2CCCCCC2)OC1 (stereo not given) | inactive: -8.85%
ClCCSc1nnc(-c2cccnc2)o1 | inactive: -2.39%
COc1ccc2nc(NP(=O)(c3ccccc3)c3ccccc3)sc2c1 | inactive: -17.1%
COc1cc(I)ccc1[As](=O)(O)O | inactive: 4.14%
O=P1(N(CCCl)CCCl)Nc2ccccc2N1 | inactive: 2.43%
O=P1(N(CCCl)CCCl)OCCCN1CCCl (stereo not given) | inactive: -10.2%
O=C(OC1CN2CCC1CC2)C12CC3CC(CC(C3)C1)C2 (stereo not given) | inactive: 0%
Cc1cc(=O)[nH]c(N[N+](=O)[O-])n1 | inactive: 9.82%
Cc1c2c(nc3ccccc13)SC(C(Cl)Cl)C2 (stereo not given) | inactive: 2.68%
COc1ccc(N/C(=N/P(=O)(N2CCOCC2)N2CCOCC2)N2CCOCC2)cc1 | inactive: 6.6%
O=[N+]([O-])c1cc(Oc2ccc([N+](=O)[O-])cc2C(F)(F)F)cc([N+](=O)[O-])c1 | inactive: -7.18%
O=[As](O)(c1cccc(O)c1)c1cccc(O)c1 | inactive: 14.2%
Cc1cccc(OCC(=O)OC2CN3CCC2CC3)c1 (stereo not given) | inactive: 3.01%
COc1cc(C(=O)NCC2(N3CCOCC3)CCCCC2)cc(Cl)c1OC(C)C | inactive: 11.3%
O=[As](O)(O)c1cccnc1 | inactive: 0.515%
CS(=O)(=O)c1ccc(Cl)c(NC(=O)COC(=O)C(O)(c2ccccc2)c2ccccc2)c1 | inactive: 4.46%
O=C(OC1CN2CCC1CC2)c1ccc(Cl)cc1 (stereo not given) | inactive: -1.37%
COc1cc(C2NCCC3(OCCO3)C2(C)C)cc(OC)c1OC (stereo not given) | inactive: -3.36%
CCOP(=O)(Nc1cccc2ccccc12)OCC | inactive: 0.483%
CCCOP(=S)(Nc1nc(N)cc(=O)[nH]1)OCCC | inactive: -3.33%
Nc1cccc2c([As](=O)(O)O)cccc12 | inactive: 3.79%
Cc1ccc(NCCc2c([N+](=O)[O-])cc([N+](=O)[O-])cc2[N+](=O)[O-])cc1 | inactive: -12.5%

— PubChem BioAssay AID602313 (National Center for Advancing Translational Sciences (NCATS), 2012)
